According to patent US12616759B2, “Uses of labeled HSP90 inhibitors” (Sloan-Kettering Institute for Cancer Research, priority 2011, dated 2026):

System: K562 and Mia-PaCa-2 cells

| Structure (SMILES) | toxicity to K562 and Mia-PaCa-2 cells |
| --- | --- |
| Cc1ccc(NC(=O)c2ccc(CN3CCN(C)CC3)cc2)cc1Nc1nccc(-c2cccnc2)n1 [Gleevec] | toxic only to K562 cells |
| CC(C)n1nc(-c2cc3cc(O)ccc3[nH]2)c2c(N)ncnc21 [PP242] | toxic to both cells |
